## Binding of CDR-mutated scFvs to a peptide of the spike HR2 region

Antigen: PDVDLGDISGINAS, a 14-residue peptide of the SARS-CoV-2 spike HR2 region.

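The starting antibody came from a phage panning campaign against this peptide. Variants in AAYL50 differ from the parent at up to three CDR positions; double and triple changes were sampled at random. The scFvs were displayed on barcoded MATa yeast, the peptide on MATalpha yeast. Binding brings cells together so that they mate, and sequencing counts the barcode pairs among the diploids. The ratio of observed to expected reads was calibrated, replicate by replicate, on BCL2-family standards whose Kd was known from biolayer interferometry. There are three technical replicates.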

Each scFv is VH, the linker GGGGSGGGGSGGGGS, VL, as in the parent Ab-14, and differs from it in the CDRs of the light chain only.
VH: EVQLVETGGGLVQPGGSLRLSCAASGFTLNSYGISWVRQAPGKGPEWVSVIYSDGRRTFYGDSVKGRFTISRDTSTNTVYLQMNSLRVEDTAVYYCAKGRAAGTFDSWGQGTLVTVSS
VL: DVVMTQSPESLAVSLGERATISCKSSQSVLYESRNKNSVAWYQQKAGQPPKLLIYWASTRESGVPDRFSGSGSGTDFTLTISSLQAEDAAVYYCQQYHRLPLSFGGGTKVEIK

The parent's light chain CDRs are KSSQSVLYESRNKNSVA, WASTRES, QQYHRLPLS; each variant's own CDRs replace them letter for letter.
Affinities are written as log10 Kd with Kd in nM; a lower number is a better binder.
A mean of the replicates is given; it leaves out those without a signal.
A pair that was not seen in any replicate is written "nd"; this usually means weak binding, but a binder can also be missed.
Nonspecific signal, from three strains lacking the peptide, appeared in 18% of pairings of library AAYL50, centred on 4.19 (5% of these signals below 2.99); values are not corrected for it. Also given: how often the same scFv was detected with the empty control strains.

With KSSQSVLYESRNKNKVA | WAETRES | QQYHRLPLS the result was nd (0 of 3 replicates; controls 0 of 9).
With KSSQYVLYEMRNCNSVA | WASTRES | QQYHRLPLS the result was nd (0 of 3 replicates; controls 0 of 9).
With KSSQSVLYESRNKNHRA | AASTRES | QQYHRLPLS the result was 3.02 (3 of 3 replicates; controls 1 of 9).
With KSSQSVLYESWNKNSSA | WASTRES | QQPHRLPLS the result was nd (0 of 3 replicates; controls 0 of 9).
With KSSQSRLYESRNKNSVG | WASTRES | QEYHRLPLS the result was nd (0 of 3 replicates; controls 1 of 9).
With KSSQSVLYEVRNKNSVA | KASTRES | QQEHRLPLS the result was 3.25 (3 of 3 replicates; controls 1 of 9).
With KSSQSELYESRNKNSVA | WASTRES | QQYHRLPLT the result was 0.51 (3 of 3 replicates; controls 0 of 9).
With KSSQSVLYESRNKNSVA | WAKTRES | QQTHRLNLS the result was nd (0 of 3 replicates; controls 1 of 9).
With KSSQSVLPESRNKNSVA | WASSRES | QYYHRLPLS the result was 2.37 (3 of 3 replicates; controls 3 of 9).
With KLSQSVLYESRNTNSVA | WASTRES | CQYHRLPLS the result was 1.28 (3 of 3 replicates; controls 0 of 9).
With KSMQSVLYESGNKNSVA | WASTRES | QQYNRLPLS the result was 0.84 (3 of 3 replicates; controls 2 of 9).
With KSSISVLYESRNKNSVA | WASTRES | HQMHRLPLS the result was 2.85 (3 of 3 replicates; controls 0 of 9).
With KSSQSVLYESREKNSVA | WALIRES | QQYHRLPLS the result was nd (0 of 3 replicates; controls 0 of 9).
With KSHQSVLYERRNKNSVA | WASTRES | QQYHRLPLH the result was 3.12 (3 of 3 replicates; controls 0 of 9).
With KSSQSWLYESRNKNSVA | WASTFES | QQMHRLPLS the result was nd (0 of 3 replicates; controls 3 of 9).
With KSEQSVLYESRMKNSVA | WASTRES | QQYHRLPLS the result was 1.44 (3 of 3 replicates; controls 0 of 9).
With VSSQSVLYESRNKNSVA | CASTYES | QQYHRLPLS the result was nd (0 of 3 replicates; controls 0 of 9).
With GSSQSVLYESRNKHSVA | WASTRES | QQYHRLPLS the result was 1.53 (3 of 3 replicates; controls 3 of 9).
With KSSQSVCYESWNLNSVA | WASTRES | QQYHRLPLS the result was 1.47 (3 of 3 replicates; controls 2 of 9).
With KSSQSVLYESANINSVA | WASKRES | QQYHRLPLS the result was 2.45 (3 of 3 replicates; controls 0 of 9).
With KSSQSVLYCSRVKNSVA | WASTRES | QQYHRCPLS the result was nd (0 of 3 replicates; controls 2 of 9).
With KSSQSVLYESRPKNSEA | WASTRES | QQAHRLPLS the result was nd (0 of 3 replicates; controls 0 of 9).
With KSSQSVLYESRNKNSVA | WAMTTES | SQYHRLPLS the result was nd (0 of 3 replicates; controls 0 of 9).
With ASSQSVLCESRNKNSVA | WASTRES | QQYFRLPLS the result was nd (0 of 3 replicates; controls 0 of 9).
With KSSQSVLNESRNKYLVA | WASTRES | QQYHRLPLS the result was 6.49 (1 of 3 replicates; controls 3 of 9).
With KSSQSVLYESRNKNRVA | WASTRES | QCYHRLLLS the result was nd (0 of 3 replicates; controls 0 of 9).
With KSSQSVLYESRNKNSVA | WASFRES | QQYHRYPLV the result was 1.24 (3 of 3 replicates; controls 1 of 9).
With KMSQLVLYESRNKNSVA | WASTRVS | QQYHRLPLS the result was 0.62 (3 of 3 replicates; controls 1 of 9).
With KSSQSVLYESFNKNSVA | WARTRES | QQYHYLPLS the result was 3.40 (3 of 3 replicates; controls 3 of 9).
With KSSQSCLYESRNPNSVA | WASTMES | QQYHRLPLS the result was 3.79 (1 of 3 replicates; controls 4 of 9).
With KSSQSVLYEWRPKNSVA | WASTCES | QQYHRLPLS the result was 3.74 (1 of 3 replicates; controls 0 of 9).
With KSSQSVLYESRNKPSVA | WRSTRES | QAYHRLPLS the result was 4.62 (2 of 3 replicates; controls 4 of 9).
With KSSQSVLYESRNKNSVA | TASTRES | QQYHRLQLS the result was nd (0 of 3 replicates; controls 0 of 9).
With KSSQSVLYEVRNKNSVA | WASVRSS | QQYHRLPLS the result was 3.62 (3 of 3 replicates; controls 3 of 9).
With KSSISVLYESRNKNSVA | WPKTRES | QQYHRLPLS the result was nd (0 of 3 replicates; controls 0 of 9).
With KSSQVVLYESRNKNSVA | WAPTRES | QQYHRLPLS the result was nd (0 of 3 replicates; controls 2 of 9).
With KSSQSVLYESPNKNSVA | WACTRES | QQYHRLPLS the result was nd (0 of 3 replicates; controls 0 of 9).
With KSSQSVLYESRNKNSEA | WAMTRES | QQGHRLPLS the result was 4.93 (1 of 3 replicates; controls 3 of 9).
With KSSQSVLYESRNKNMVA | WASTRFS | QQYIRLPLS the result was 2.57 (3 of 3 replicates; controls 2 of 9).
With KSSQSVAYGLRNKNSVA | WASTRES | QQYHRLPLS the result was 0.78 (3 of 3 replicates; controls 4 of 9).
With KSSQSQLYESRNKNSVA | WASTRES | QQYHMLPKS the result was 4.37 (1 of 3 replicates; controls 3 of 9).
With KSSQSVLYESRNKNSVA | WALTRES | QQYPRQPLS the result was 5.10 (1 of 3 replicates; controls 2 of 9).
With KSSQSVLYESRNKNSVV | WASGRES | QQYHRLYLS the result was nd (0 of 3 replicates; controls 1 of 9).
With KSSQSVLYESRNLNSVA | KASTRES | QQGHRLPLS the result was 0.95 (3 of 3 replicates; controls 3 of 9).
With KSSFSVLYESRWKNSVA | WASTRES | QQYHRLPLS the result was 2.55 (3 of 3 replicates; controls 1 of 9).
With KSSQSVLYESRNKNSVA | WWSTRES | RQYHRFPLS the result was 5.73 (3 of 3 replicates; controls 3 of 9).

Extract of 4 entries:

Variant KSSQYVLYEMRNCNSVA | WASTRES | QQYHRLPLS showed nd (0 of 3 replicates; controls 0 of 9).
Variant KSSQSVLYESWNKNSSA | WASTRES | QQPHRLPLS showed nd (0 of 3 replicates; controls 0 of 9).
Variant KSSQSVLYESRNKNKVA | WAETRES | QQYHRLPLS showed nd (0 of 3 replicates; controls 0 of 9).
Variant KSSQSVLYESRNKNHRA | AASTRES | QQYHRLPLS showed 3.02 (3 of 3 replicates; controls 1 of 9).

Data: MIT Lincoln Laboratory AlphaSeq set, Engelhart et al. 2022, doi:10.1038/s41597-022-01779-4, as distributed in FLAb.